Assay results published in US9796733B2, “Imidazo-pyrazine derivatives useful as soluble guanylate cyclase activators” (Merck Sharp & Dohme Corp., priority 2014, dated 2017).

The chains behind the UniProt entries cited, without tags or fusion partners.
UniProt Q02108, whole entry: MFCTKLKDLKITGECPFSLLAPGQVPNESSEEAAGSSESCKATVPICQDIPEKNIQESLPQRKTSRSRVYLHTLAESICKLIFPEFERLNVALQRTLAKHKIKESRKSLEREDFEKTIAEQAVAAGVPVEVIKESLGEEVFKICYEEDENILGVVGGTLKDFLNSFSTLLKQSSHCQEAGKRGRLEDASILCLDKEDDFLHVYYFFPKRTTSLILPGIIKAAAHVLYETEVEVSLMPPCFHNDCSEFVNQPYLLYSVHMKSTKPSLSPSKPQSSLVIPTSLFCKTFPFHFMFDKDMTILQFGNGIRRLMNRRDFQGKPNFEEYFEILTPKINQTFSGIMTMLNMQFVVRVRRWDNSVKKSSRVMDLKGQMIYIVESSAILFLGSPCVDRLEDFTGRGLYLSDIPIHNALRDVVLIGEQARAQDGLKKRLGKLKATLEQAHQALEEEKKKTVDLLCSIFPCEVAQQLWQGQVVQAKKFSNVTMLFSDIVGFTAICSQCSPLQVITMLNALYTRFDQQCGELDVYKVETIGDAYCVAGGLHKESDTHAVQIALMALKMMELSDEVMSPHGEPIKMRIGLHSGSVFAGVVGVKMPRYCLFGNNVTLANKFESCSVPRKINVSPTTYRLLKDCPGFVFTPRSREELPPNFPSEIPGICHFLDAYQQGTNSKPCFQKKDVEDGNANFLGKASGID
UniProt Q02153, whole entry: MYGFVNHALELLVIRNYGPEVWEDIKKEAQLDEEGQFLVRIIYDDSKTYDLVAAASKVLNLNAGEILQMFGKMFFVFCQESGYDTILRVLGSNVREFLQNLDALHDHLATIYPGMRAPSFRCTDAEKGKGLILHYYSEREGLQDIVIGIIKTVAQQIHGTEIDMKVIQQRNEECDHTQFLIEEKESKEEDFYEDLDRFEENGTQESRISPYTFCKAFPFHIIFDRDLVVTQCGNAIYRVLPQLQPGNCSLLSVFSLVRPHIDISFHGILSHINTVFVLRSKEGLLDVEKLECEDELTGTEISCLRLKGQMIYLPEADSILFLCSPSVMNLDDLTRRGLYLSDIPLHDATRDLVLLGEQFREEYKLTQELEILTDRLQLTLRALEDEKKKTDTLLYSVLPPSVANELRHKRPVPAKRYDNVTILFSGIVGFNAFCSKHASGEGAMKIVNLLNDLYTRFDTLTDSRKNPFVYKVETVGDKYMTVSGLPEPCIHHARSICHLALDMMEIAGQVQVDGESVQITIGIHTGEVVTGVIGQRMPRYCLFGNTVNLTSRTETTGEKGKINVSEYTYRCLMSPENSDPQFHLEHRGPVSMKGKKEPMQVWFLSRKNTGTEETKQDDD

Molecular target: sGC α1/β1 heterodimer (Homo sapiens, UniProt Q02108+Q02153)
Experiment: Cell-based sGC functional assay (CASA assay): cGMP generation in CHO-K1/sGC cells, HTRF detection
Description: Biological Assay 1: Cell-Based sGC Functional Assay (CASA Assay)
sGC is a heme-containing enzyme that converts GTP to secondary messenger cGMP. Increases in cGMP levels affect several physiological processes including vasorelaxation through multiple downstream pathways. […] Heme-dependent activators (HDAs) preferentially activate sGC containing a ferrous heme group. To determine the effect of sGC activators on enzyme activity, the CASA assay was developed to monitor the generation of cGMP in a cell line that stably expresses the heterodimeric sGC protein.
A CHO-K1 cell line stably expressing the sGC α1/β1 heterodimer was generated using a standard transfection protocol. CHO-K1 cells were transfected with plasmids pIREShyghsGCal and pIRESneo-hsGCβ1 simultaneously using FUGENE reagent. Clones that stably express both subunits were selected with hygromycin and neomycin for 2 weeks. Clone #7 was chosen for the assay and was designated CHO-K1/sGC. […] The level of intracellular cGMP was determined using an HTRF-based assay kit (CisBio, 62GM2PEC), which detects the displacement of a fluorescence labeled cGMP from its specific antibody. […]
[drawing 597] […] The test compounds' activities were then expressed as a percentage of Compound A, the standard in every experiment. This percent activation was calculated either in the presence or absence of DETA-NO which was then plotted. […]

% Act. (percent activation relative to standard Compound A in CHO-K1/sGC cells): 92% | EC50 (read-out: IP, inflection point (IP) of cGMP generation in CHO-K1/sGC cells, 4P fit, activity expressed as percentage of Compound A): 1.69 µM
Compound: COC(=O)c1c(C)nc2c(CCC(F)(F)C(F)(F)F)nc(-c3nc(N)c4c(n3)NC(=O)C4(C)c3ccc(F)cc3)cn12 (centres unmarked)
